Laboratory results as given in PubChem BioAssay AID624037 (The Scripps Research Institute Molecular Screening Center, 2012).
The list shows a part of the results, in another mix than the full data. Activity calls are given as the source filed them.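 How the source made its calls: active means activation above the run's mean over test compounds plus 3 SD (cut at about 23% in these data); inactive means the rest.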

Protein sequences, listed by entry. Tags and fused reporters are not part of them.
UniProt P08912, whole entry: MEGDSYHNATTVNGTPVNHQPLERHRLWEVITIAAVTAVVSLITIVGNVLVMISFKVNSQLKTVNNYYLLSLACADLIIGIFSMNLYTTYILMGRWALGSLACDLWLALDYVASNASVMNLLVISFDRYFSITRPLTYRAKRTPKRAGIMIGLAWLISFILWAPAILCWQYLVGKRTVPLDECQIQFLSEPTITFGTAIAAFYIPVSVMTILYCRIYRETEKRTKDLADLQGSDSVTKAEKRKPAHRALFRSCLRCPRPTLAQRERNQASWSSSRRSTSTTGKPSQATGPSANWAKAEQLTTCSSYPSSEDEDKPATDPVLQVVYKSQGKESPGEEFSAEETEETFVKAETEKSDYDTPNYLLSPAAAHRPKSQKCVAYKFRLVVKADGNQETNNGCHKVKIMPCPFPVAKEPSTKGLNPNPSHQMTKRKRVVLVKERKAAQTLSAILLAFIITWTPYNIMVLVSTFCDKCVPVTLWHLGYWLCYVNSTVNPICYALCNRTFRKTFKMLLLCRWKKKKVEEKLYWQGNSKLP

These compounds were tested against Muscarinic acetylcholine receptor M5 (Homo sapiens) (UniProt P08912) (assay: CHRM5 activators raising intracellular calcium – CHO-K1 cells, Fluo-8 calcium fluorescence, primary screen (AID 624037;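 further: signal is peak over basal fluorescence ratio across the kinetic read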)). Details: CHO-K1 hM5 cells, at 3 µM, hits give high values, 0% DMSO wells, 100% maximal acetylcholine response.

Structure (SMILES) | activation
CN1CCC(Nc2ccc(F)c(Cl)c2)CC1 | inactive: -15.5%
CCOc1ncccc1C(=O)NCC1(N2CCOCC2)CCCCC1 | inactive: -0.88%
O=c1[nH]c2ccccc2n1C1CCN(C(c2cc3ccccc3o2)c2nnnn2C2CCCC2)CC1 (stereo not given) | inactive: 3.21%
CCCOc1ccc(C(=O)NCC2(N(C)C)CCCCC2)cc1 | inactive: -6.04%
O=C(O)C1(Nc2ccccc2)CCN(Cc2ccccc2)CC1 | inactive: -5.32%
NN(c1ccccc1)C1CCN(CCc2ccccc2)CC1 | inactive: -6.95%
CC(C)(C)OC(=O)N1CCC(Nc2ccccc2)CC1 | inactive: 1.14%
CCC(CO)(C(=O)OC1CN2CCC1CC2)c1ccccc1 (stereo not given) | inactive: -7.3%
COc1cc(OC)cc(C(=O)NCC2(N3CCOCC3)CCCCC2)c1 | inactive: -2.11%
COc1cccc(C(c2nnnn2C2CCCC2)N2CCC(n3c(=O)[nH]c4ccccc43)CC2)c1OC (stereo not given) | inactive: -3.95%
COc1cccc(C(=O)N(c2cc(C)cc(C)c2)C2CCN(C(=O)OC(C)(C)C)CC2)c1 | inactive: -6.2%
CN1CCC(Nc2ccc(Cl)cc2)CC1 | inactive: -5.69%
COc1cc(OC)cc(C(=O)NCC2(N3CCCCC3)CCCCC2)c1 | inactive: -3.65%
O=c1[nH]c2ccccc2n1C1CCN(C(c2ccnc3ccccc23)c2nnnn2C2CCCCC2)CC1 (stereo not given) | inactive: 1.46%
CCC(c1nnnn1C1CCCCC1)N1CCC(n2c(=O)[nH]c3ccccc32)CC1 (stereo not given) | inactive: 7.07%
COc1cccc(C(c2nnnn2C2CCCCC2)N2CCC(n3c(=O)[nH]c4ccccc43)CC2)c1OC (stereo not given) | inactive: 1.22%
CC(=O)N(c1ccccc1)C1CCNCC1 | inactive: -8.02%
Cc1ccc(NC2(C#N)CCN(Cc3ccccc3)CC2)cc1 | inactive: 3.81%
Fc1ccccc1NC1CCN(Cc2ccccc2)CC1 | inactive: -2.44%
Cc1ccc(C(=O)NCC2(N3CCCCC3)CCCCC2)o1 | inactive: 1.13%

Structure (SMILES) | activation
CCN1CCC(Nc2cccc(F)c2)CC1 | inactive: -7.09%
COc1ccc(C(c2nnnn2C2CCCCC2)N2CCC(n3c(=O)[nH]c4ccccc43)CC2)cc1 (stereo not given) | inactive: 1.86%
CC(C)(C)n1nnnc1C(c1ccnc2ccccc12)N1CCC(n2c(=O)[nH]c3ccccc32)CC1 (stereo not given) | active: 29.4%
Cc1ccccc1NC1(C#N)CCN(Cc2ccccc2)CC1 | inactive: -1.36%
CN(C)c1ccc(C(=O)NCC2(N3CCCCC3)CCCCC2)cc1 | inactive: -2.53%
Cn1c(=O)[nH]cc(N(CCCl)CCCl)c1=O | inactive: 1.62%
O=C(NCC1(N2CCCCC2)CCCCC1)c1ccco1 | inactive: -0.62%
CC(C)(C)OC(=O)N1CCC(N(C(=O)c2ccccc2)c2ccc(Cl)cc2)CC1 | inactive: -4.12%
N#Cc1ccc(C(=O)NCC2(N3CCCCC3)CCCCC2)cc1 | inactive: -4.19%
Cc1cc(N(CCCl)CCCl)ccc1C=O | inactive: -7.93%
O=c1[nH]c2ccccc2n1C1CCN(C(c2ccccc2)c2nnnn2C2CCCC2)CC1 (stereo not given) | inactive: 7.67%
CCCN1CCC(Nc2cc(OC)cc(OC)c2)CC1 | inactive: -3.07%
c1ccc(CN2CCC(Nc3ccccc3)CC2)cc1 | inactive: -8.71%
CN(C)C1(CNC(=O)c2cccc(C#N)c2)CCCCC1 | inactive: -4.85%
CC(C)(C)n1nnnc1C(c1cccc2ccccc12)N1CCC(n2c(=O)[nH]c3ccccc32)CC1 (stereo not given) | inactive: 6.98%
O=C(NCC1(N2CCOCC2)CCCCC1)c1cc(Br)ccc1Cl | inactive: -1.14%
COc1cc(C(=O)NCC2(N3CCOCC3)CCCCC2)cc(OC)c1C | inactive: -1.34%
CCCCn1nnnc1C(c1ccccc1)N1CCC(n2c(=O)[nH]c3ccccc32)CC1 (stereo not given) | inactive: 6.65%
O=c1[nH]c2ccccc2n1C1CCN(C(c2ccnc3ccccc23)c2nnnn2C2CCCC2)CC1 (stereo not given) | inactive: 6.35%
COc1ccc(C(=O)NCC2(N3CCOCC3)CCCCC2)cc1OC | inactive: 0.28%

Structure (SMILES) | activation
O=c1[nH]c2ccccc2n1C1CCN(C(c2cccs2)c2nnnn2C2CCCCC2)CC1 (stereo not given) | inactive: 9.5%
N/C(=N\O)c1c(N)no[n+]1[O-] | inactive: -1.71%
CCOC(=O)N1CCC(Nc2ccc(C)cc2)CC1 | inactive: -8.75%
COc1cccc(C(c2nnnn2C(C)(C)C)N2CCC(n3c(=O)[nH]c4ccccc43)CC2)c1OC (stereo not given) | inactive: 5.66%
CCCCn1nnnc1C(c1cccc(OC)c1OC)N1CCC(n2c(=O)[nH]c3ccccc32)CC1 (stereo not given) | inactive: -2.42%
O=c1[nH]c2ccccc2n1C1CCN(C(c2cccs2)c2nnnn2C2CCCC2)CC1 (stereo not given) | inactive: 10.9%
O=C(OC1CN2CCC1CC2)C1c2ccccc2C=Cc2ccccc21 (stereo not given) | inactive: -8.42%
CN(C)c1cccc(C(=O)NCC2(N3CCCCC3)CCCCC2)c1 | inactive: -12.6%
COc1ccc(CN(CCCl)CCCl)cc1Cl | inactive: -1.32%
CCCCn1nnnc1C(c1ccccc1OC(F)(F)F)N1CCC(n2c(=O)[nH]c3ccccc32)CC1 (stereo not given) | inactive: 0.78%
CC(C)c1ccc(NC2CCN(C(=O)OC(C)(C)C)CC2)cc1 | inactive: 2.11%
CCCCn1nnnc1C(c1ccnc2ccccc12)N1CCC(n2c(=O)[nH]c3ccccc32)CC1 (stereo not given) | inactive: 4.3%
CCC(c1nnnn1C(C)(C)C)N1CCC(n2c(=O)[nH]c3ccccc32)CC1 (stereo not given) | inactive: 2.24%
O=C(NCC1(N2CCOCC2)CCCCC1)c1cc(F)c(F)cc1Cl | inactive: 2.73%
COc1cc(OC)c(C(=O)NCC2(N(C)C)CCCCC2)cc1OC | inactive: -0.99%
CN1CCC(Nc2cccc(F)c2)CC1 | inactive: -7%
O=C(NCC1(N2CCCCC2)CCCCC1)c1cncc(Br)c1 | inactive: -1.5%
CCCOc1ccc(C(=O)NCC2(N(C)C)CCCCC2)cc1OC | inactive: -3.11%
Cc1ccc(C(=O)NCC2(N(C)C)CCCCC2)o1 | inactive: -1.14%
COc1ccc(C(c2nnnn2C2CCCC2)N2CCC(n3c(=O)[nH]c4ccccc43)CC2)cc1 (stereo not given) | inactive: -4.81%
